Results on 2 compounds are retold here after ChEMBL document CHEMBL1124864, “Synthesis and biological evaluation of new antimuscarinic compounds with amidine basic centers. A useful bioisosteric replacement of classical cationic heads” (J Med Chem, 1990).

Amino acid sequences for entries named in this document (tags omitted). A change or cut given only in a name is not applied to a line headed by its entry.
UniProt P10980, whole entry: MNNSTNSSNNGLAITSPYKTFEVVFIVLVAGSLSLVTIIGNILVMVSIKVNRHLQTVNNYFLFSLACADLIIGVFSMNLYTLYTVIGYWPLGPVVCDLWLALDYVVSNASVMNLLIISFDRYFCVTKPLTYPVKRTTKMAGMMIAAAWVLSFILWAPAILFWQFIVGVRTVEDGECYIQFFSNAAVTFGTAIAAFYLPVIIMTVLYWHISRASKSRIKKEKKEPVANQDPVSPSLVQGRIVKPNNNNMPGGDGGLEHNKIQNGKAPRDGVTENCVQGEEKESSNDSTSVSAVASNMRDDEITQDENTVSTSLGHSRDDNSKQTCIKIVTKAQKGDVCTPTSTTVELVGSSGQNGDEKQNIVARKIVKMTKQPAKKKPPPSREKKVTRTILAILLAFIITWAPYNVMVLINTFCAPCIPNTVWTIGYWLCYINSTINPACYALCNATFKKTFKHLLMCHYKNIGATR
UniProt P08482: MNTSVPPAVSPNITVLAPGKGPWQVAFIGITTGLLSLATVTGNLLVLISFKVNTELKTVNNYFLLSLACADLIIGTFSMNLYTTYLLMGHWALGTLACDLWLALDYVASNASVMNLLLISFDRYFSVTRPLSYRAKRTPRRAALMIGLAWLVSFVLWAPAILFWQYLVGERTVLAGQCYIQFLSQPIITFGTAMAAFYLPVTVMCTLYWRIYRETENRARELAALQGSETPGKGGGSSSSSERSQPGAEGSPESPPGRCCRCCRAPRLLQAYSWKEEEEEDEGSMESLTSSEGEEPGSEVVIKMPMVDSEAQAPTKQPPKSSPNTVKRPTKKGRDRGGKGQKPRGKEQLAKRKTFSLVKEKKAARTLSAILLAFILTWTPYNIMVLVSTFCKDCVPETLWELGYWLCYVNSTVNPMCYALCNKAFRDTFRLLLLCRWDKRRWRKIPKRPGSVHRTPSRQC

As a reminder, the Kd is the equilibrium constant for the complex coming apart.

For test [1], the target named is Muscarinic acetylcholine receptor M2 (Rattus norvegicus, UniProt P10980). Kind of test: In vitro receptor binding against Muscarinic acetylcholine receptor M2 in rat heart was determined using [3H]NMS.
Test [2] addresses Muscarinic acetylcholine receptor M1 (Rattus norvegicus, UniProt P08482). Kind of test: In vitro receptor binding against Muscarinic acetylcholine receptor M1 in rat cerebral cortex was determined using [3H]pirenzepine. It counts as tissue-based. Summed up:
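Rat cortex, heart or submandibular gland homogenates in Na+-Mg2+-HEPES pH 7.4, incubated 45 min at 30 °C with radioligand plus varying cold ligand. Separated by centrifugation, pellets washed and counted, in triplicate. KD from IC50 by nonlinear regression with Cheng–Prusoff correction; Hill slopes by linear regression.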

In the case of `CN1[C@@H]2C[C@@H](OC(=O)[C@H](CO)c3ccccc3)C[C@H]1[C@@H]1O[C@@H]12` [SCOPOLAMINE], the Kd in test [1] is 3 nM. This counts as single-digit nanomolar.

Compound `C[N+]1(C)[C@@H]2CC[C@H]1C[C@@H](OC(=O)C(CO)c1ccccc1)C2` (some centres not stated) [ATROPINE METHYLBROMIDE] gave a Kd in test [2] of 2.5 nM.
